Laboratory results from US20120225909A1, “INDAZOLE ANALOG” (priority 2009, published 2012).
Like-named read-outs stand apart in the source and are kept apart here.

By UniProt entry, the sequences of proteins in these tests, tags left out.
UniProt P35348, whole entry: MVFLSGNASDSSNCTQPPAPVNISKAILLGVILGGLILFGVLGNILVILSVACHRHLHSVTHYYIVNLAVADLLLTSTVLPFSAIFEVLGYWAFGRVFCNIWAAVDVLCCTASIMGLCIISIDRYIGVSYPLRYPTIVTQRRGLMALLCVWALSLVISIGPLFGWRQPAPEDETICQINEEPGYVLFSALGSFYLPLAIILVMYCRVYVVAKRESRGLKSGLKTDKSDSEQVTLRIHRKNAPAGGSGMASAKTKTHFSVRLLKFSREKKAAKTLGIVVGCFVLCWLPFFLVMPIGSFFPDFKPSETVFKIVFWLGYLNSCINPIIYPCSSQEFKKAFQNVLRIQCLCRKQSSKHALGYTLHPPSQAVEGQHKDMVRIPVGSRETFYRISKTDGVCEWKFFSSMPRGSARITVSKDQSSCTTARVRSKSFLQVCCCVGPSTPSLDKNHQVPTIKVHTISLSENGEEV
UniProt P08588, whole entry: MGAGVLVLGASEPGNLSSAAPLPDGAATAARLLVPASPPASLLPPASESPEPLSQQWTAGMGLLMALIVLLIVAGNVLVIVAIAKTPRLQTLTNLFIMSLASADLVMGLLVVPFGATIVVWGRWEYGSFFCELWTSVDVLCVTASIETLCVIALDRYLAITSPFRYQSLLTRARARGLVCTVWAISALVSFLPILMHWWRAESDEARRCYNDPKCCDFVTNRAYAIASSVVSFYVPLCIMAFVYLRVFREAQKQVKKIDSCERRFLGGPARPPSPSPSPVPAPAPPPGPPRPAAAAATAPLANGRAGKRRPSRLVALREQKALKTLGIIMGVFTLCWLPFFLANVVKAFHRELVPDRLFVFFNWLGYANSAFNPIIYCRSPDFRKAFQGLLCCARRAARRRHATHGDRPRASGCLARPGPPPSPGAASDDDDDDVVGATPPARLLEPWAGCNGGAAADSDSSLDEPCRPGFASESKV
UniProt P13945, whole entry: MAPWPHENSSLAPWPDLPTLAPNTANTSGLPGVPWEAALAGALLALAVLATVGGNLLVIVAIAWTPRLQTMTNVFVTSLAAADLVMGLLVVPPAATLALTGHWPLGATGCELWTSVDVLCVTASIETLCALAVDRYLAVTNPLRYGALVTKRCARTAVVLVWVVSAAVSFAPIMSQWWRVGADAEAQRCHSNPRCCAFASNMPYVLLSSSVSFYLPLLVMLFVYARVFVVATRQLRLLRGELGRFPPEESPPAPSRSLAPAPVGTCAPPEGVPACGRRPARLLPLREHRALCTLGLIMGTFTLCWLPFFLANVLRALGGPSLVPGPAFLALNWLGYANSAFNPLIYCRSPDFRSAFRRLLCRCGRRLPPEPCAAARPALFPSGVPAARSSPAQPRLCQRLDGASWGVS
UniProt P25100, whole entry: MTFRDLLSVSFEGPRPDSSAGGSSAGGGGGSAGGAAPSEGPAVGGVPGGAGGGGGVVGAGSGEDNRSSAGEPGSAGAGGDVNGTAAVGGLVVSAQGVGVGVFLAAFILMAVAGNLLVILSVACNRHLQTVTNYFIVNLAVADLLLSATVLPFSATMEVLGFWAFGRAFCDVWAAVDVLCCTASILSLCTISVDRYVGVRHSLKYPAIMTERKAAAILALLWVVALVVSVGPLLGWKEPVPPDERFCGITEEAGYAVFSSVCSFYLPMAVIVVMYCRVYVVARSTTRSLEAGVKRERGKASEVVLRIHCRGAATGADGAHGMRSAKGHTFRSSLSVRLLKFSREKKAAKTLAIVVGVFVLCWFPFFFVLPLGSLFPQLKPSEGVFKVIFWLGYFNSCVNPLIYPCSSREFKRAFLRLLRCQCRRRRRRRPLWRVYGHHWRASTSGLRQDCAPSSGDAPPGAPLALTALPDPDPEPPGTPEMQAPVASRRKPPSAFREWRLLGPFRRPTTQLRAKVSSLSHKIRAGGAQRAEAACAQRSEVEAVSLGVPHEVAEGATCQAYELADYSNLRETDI
UniProt P35368, whole entry: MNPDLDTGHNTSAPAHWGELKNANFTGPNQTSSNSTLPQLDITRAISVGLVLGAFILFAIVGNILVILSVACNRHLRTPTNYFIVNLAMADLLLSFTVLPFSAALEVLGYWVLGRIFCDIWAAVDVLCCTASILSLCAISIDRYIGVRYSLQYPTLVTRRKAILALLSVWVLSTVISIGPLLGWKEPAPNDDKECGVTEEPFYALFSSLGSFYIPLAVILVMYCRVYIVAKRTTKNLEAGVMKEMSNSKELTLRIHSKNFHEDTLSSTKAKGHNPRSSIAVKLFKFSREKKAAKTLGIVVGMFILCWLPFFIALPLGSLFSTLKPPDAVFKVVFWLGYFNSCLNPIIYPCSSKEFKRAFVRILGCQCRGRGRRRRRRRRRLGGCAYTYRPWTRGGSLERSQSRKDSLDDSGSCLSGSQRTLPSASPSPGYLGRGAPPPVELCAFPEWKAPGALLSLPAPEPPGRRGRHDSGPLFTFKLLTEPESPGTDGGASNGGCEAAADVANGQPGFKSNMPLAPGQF

Legend:
[1] = target: T1, human α1A-adrenergic receptor (Homo sapiens, UniProt P35348); experiment: Test Case 4-B: human α1A-adrenergic receptor agonist activity (Cerep cellular functional GPCR, alpha 1A); format: cell-based; conditions: concentration 10 μM; for α1 receptor % of Control Agonist Response, Control; Epinephrine: epinephrine = 100%; for α1 receptor % of Control Agonist Response, Control; Norepinephrine: norepinephrine = 100%
Description: Measurement of Human α1A-Adrenergic Receptor Agonist Activity
The human α1A-adrenergic receptor agonist activity] can be measured by […] Functional GPCR·Gs, alpha 1A (Ref. 722-36a) listed on p. 52 of the Cerep 2008 CATALOG IN VITRO PHARMACOLOGY & ADME-TOX.

[2] = target: T2, human β2-adrenergic receptor (Homo sapiens, UniProt P07550); experiment: Test Case 3-C: human β2-adrenergic receptor agonist activity (Cerep cellular functional GPCR, beta 2); format: cell-based; conditions: concentration 10 μM, isoproterenol = 100%
[3] = target: T3, human β1-adrenergic receptor (Homo sapiens, UniProt P08588); experiment: Test Case 2-A: human β1-adrenergic receptor agonist activity; format: cell-based; conditions: for β1 receptor I.A.: maximum response of isoproterenol = 100%
[4] = target: T2, human β2-adrenergic receptor; experiment: Test Case 3-A: human β2-adrenergic receptor agonist activity; format: cell-based; conditions: maximum response of isoproterenol = 100%
[5] = target: T3, human β1-adrenergic receptor; experiment: Test Case 2-C: human β1-adrenergic receptor agonist activity (Cerep cellular functional GPCR, beta 1); format: cell-based; conditions: concentration 10 μM, isoproterenol = 100%
[6] = tested on: pentobarbital-anesthetized rats; experiment: Test Case 9: effects on the blood pressure and heart rate in pentobarbital-anesthetized rats; format: in vivo, rat; conditions: anesthetized male SD rats; 3 mg/kg intravenous over 30 seconds; maximum change, mean±standard deviation
[7] = target: T4, human β3-adrenergic receptor (Homo sapiens, UniProt P13945); experiment: Test Case 1-A: human β3-adrenergic receptor agonist activity (cAMP-EIA, 24-well); format: cell-based; conditions: maximum response of isoproterenol = 100%
[8] = target: T1, human α1A-adrenergic receptor; experiment: Test Case 4-A: human α1A-adrenergic receptor agonist activity (HEK293, Ca flux, Fura-2); format: cell-based; conditions: for α1A receptor I.A.: maximum response of norepinephrine = 100%
[9] = target: human α1D-adrenergic receptor (Homo sapiens, UniProt P25100); experiment: Test Case 6: human α1D-adrenergic receptor agonist activity (HEK293, SRE-luciferase); format: cell-based; conditions: judged from results of Test Case 6
Experimental: Measurement of Human α1D-Adrenergic Receptor Agonist Activity
(§1) For the human α1D-adrenergic receptor agonist activity, a human α1D gene inserted into pcDNA3.1 (Invitrogen) and a p-SRE-Luc plasmid (Strata gene) of a luciferase gene expression vector are temporarily transfected into HEK293 cells. 40,000 cells/well are sown in 96-well plates and cultured overnight at 37° C. under 5% CO2 in DMEM medium containing 2% fetal calf serum. A solution prepared by dissolving the test compound in DMSO and subsequently diluting it with medium is added to the cells and reacted for a number of hours. The medium is suctioned off, and 30 μL/well of PicaGene LT2.0 (Toyo Ink) is added. The luminescence value is measured 30 minutes later. Taking the maximum response of phenylephrine, the positive control, as 100%, the ratio of the maximum response of each test compound is calculated as the intrinsic activity [I.A. (%)].

[10] = target: T4, human β3-adrenergic receptor; experiment: Test Case 1-B: human β3-adrenergic receptor agonist activity (cAMP-Screen, 96-well); format: cell-based; conditions: for β3 receptor I.A.: maximum response of isoproterenol = 100%
[11] = target: T3, human β1-adrenergic receptor; experiment: Test Case 2-B: human β1-adrenergic receptor agonist activity; format: cell-based; conditions: maximum response of isoproterenol = 100%
[12] = target: human α1B-adrenergic receptor (Homo sapiens, UniProt P35368); experiment: Test Case 5: human α1B-adrenergic receptor agonist activity (HEK293, SRE-luciferase); format: cell-based; conditions: judged from results of Test Case 5
Experimental: Measurement of Human α1B-Adrenergic Receptor Agonist Activity
as §1, with “α1B-adrenergic” for “α1D-adrenergic”, “α1B” for “α1D”, “transiently” for “temporarily”

[13] = target: T2, human β2-adrenergic receptor; experiment: Test Case 3-B: human β2-adrenergic receptor agonist activity; format: cell-based; conditions: maximum response of isoproterenol = 100%, tested form: HCl

Structure (SMILES)	α1 receptor % of Control Agonist Response, Control; Epinephrine [1]	α1 receptor % of Control Agonist Response, Control; Norepinephrine [1]	β2 receptor % of Control Agonist Response [2]	β1 receptor I.A. [3]	β2 receptor I.A. [4]	β1 receptor % of Control Agonist Response [5]	increase in MBP (%) [6]	β3 receptor I.A. [7]	α1A receptor I.A. ([8]; Table 3)	α1A receptor I.A. ([8]; Table 4)	other results
Cc1n[nH]c2cc(OCCNC[C@H](O)c3ccc(Cl)c(NS(C)(=O)=O)c3)ccc12	59%	51%	17%	22%	15%	44%	12.6 ± 4.1%	52%	59%	59%	EC50 ([3]; read-out: β1 receptor EC50, CHO cells, cAMP): 0.14 µM; EC50 ([8]; read-out: α1A receptor EC50, HEK293 cells, Ca flux, Table 3): 0.039 µM; EC50 ([8]; read-out: α1A receptor EC50, HEK293 cells, Ca flux, Table 4): 0.039 µM
COc1n[nH]c2cc(OCCNC[C@H](O)c3cccc(NS(C)(=O)=O)c3)ccc12	62%	54%	8.2%	7.2%	23%	13%	12.8 ± 4.4%	54%	60%	60%	α1D agonist activity [9]: does not have α1D agonist activity; β3 receptor I.A. [10]: 67%; EC50 ([10]; read-out: β3 receptor EC50, CHO cells, cAMP): 0.04 µM; β1 receptor I.A. [11]: 2.4%; α1B agonist activity [12]: does not have α1B agonist activity
CN(C)C(=O)CCc1n[nH]c2cc(OCCNC[C@H](O)c3cccc(NS(=O)(=O)c4cccc(N)c4)c3)ccc12	–	–	–	–	–	–	–	–	–	–	β3 receptor I.A. ([10]; tested form: HCl): 104%; EC50 ([10]; read-out: β3 receptor EC50, CHO cells, cAMP, tested form: HCl): 0.0002 µM; β1 receptor I.A. ([11]; tested form: HCl): 19%; β2 receptor I.A. [13]: 6%; α1A receptor I.A. ([8]; Table 4, tested form: HCl): 0%
